Assay results as given in ChEMBL document CHEMBL1152608, “Design, synthesis, and X-ray crystal structures of 2,4-diaminofuro[2,3-d]pyrimidines as multireceptor tyrosine kinase and dihydrofolate reductase inhibitors” (Bioorg Med Chem, 2009).

Assay: Selectivity index, ratio of IC50 for rat liver DHFR to Toxoplasma gondii DHFR

Structure (SMILES)	Ratio IC50
COc1ccccc1/C(C)=C/c1coc2nc(N)nc(N)c12	4.62
COc1ccccc1/C(C)=C\c1coc2nc(N)nc(N)c12	2.58
